# scFv variants of Ab-14 (light chain) against a SARS-CoV-2 spike peptide

The measurements come from Engelhart et al. 2022 (doi:10.1038/s41597-022-01779-4) through the FLAb antibody collection.

Binding partner: SARS-CoV-2 spike HR2 peptide, sequence PDVDLGDISGINAS.

Parent scFv Ab-14: VH joined to VL by the linker GGGGSGGGGSGGGGS. Changes lie in the light chain CDRs alone.
VH: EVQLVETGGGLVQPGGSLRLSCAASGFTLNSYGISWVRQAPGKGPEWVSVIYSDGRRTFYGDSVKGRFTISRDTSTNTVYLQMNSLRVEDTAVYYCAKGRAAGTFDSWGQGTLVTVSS
VL: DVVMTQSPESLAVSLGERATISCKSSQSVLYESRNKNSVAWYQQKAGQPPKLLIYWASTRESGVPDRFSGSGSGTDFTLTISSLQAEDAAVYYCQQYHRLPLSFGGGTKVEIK

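Phage display of a naive human antibody library on the peptide gave the parent. Library AAYL50 holds single substitutions and randomly drawn double and triple substitutions in the CDRs. The assay is AlphaSeq: two haploid yeast populations carry antibody and antigen on their surface. Binding brings cells together so that they mate, and sequencing counts the barcode pairs among the diploids. Each replicate has its own calibration line, from reference interactions of the BCL2 family. Each pool was mated in three replicate cultures.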

Positions count from residue 1 of the parent VL; S25H puts H in place of S. Affinities are written as log10 Kd with Kd in nM; a lower number is a better binder. "nd" marks a missing value. The strain was present, yet no cells mated with the target were sequenced in that replicate, which points to weak or no binding. Empty control strains, which show no peptide, gave a signal in 18% of pairings with library AAYL50; the median was 4.19 and 95% of these signals were weaker than 2.99. No background was subtracted. Also given: how often the same scFv was detected with the empty control strains, with their mean in brackets. In this assay the parent's reference entry averaged 0.65; its copy inside this library read 1.68.

{"changes": "S25H/V29W/E61H", "log10 Kd (nM) by replicate": "1.74 1.77 2.05", "signal with controls": "0/9"}
{"changes": "S25I/S33Y/Y97I", "log10 Kd (nM) by replicate": "0.29 0.55 0.28", "signal with controls": "2/9 (4.67)"}
{"changes": "A57K/E61W", "log10 Kd (nM) by replicate": "2.65 2.63 2.84", "signal with controls": "0/9"}
{"changes": "K36N/T59A/R60W", "log10 Kd (nM) by replicate": "4.46 3.90 nd", "signal with controls": "4/9 (4.60)"}
{"changes": "K36P/N37L/S62K", "log10 Kd (nM) by replicate": "1.28 1.32 1.49", "signal with controls": "0/9"}
{"changes": "K24N/V29S/S38W", "log10 Kd (nM) by replicate": "nd nd nd", "signal with controls": "0/9"}
{"changes": "N35P/Q96M", "log10 Kd (nM) by replicate": "nd 3.54 nd", "signal with controls": "6/9 (4.90)"}
{"changes": "S33W/T59A/E61W", "log10 Kd (nM) by replicate": "nd 3.48 nd", "signal with controls": "0/9"}
{"changes": "R34H/N35V/E61F", "log10 Kd (nM) by replicate": "1.25 1.56 1.89", "signal with controls": "2/9 (3.37)"}
{"changes": "S26L/K36D/A40Y", "log10 Kd (nM) by replicate": "nd nd nd", "signal with controls": "0/9"}
{"changes": "Q27T/R99M/L100Q", "log10 Kd (nM) by replicate": "nd 3.86 4.45", "signal with controls": "1/9 (5.48)"}
{"changes": "K24G/S25C/T59G", "log10 Kd (nM) by replicate": "1.93 1.82 1.85", "signal with controls": "0/9"}
{"changes": "S26C/N37F/R99I", "log10 Kd (nM) by replicate": "3.19 4.63 3.25", "signal with controls": "2/9 (3.77)"}
{"changes": "R34N/V39A/R99T", "log10 Kd (nM) by replicate": "3.15 nd 3.46", "signal with controls": "0/9"}
{"changes": "N37Y/Q95N/H98K", "log10 Kd (nM) by replicate": "nd nd nd", "signal with controls": "0/9"}
{"changes": "V29E/R34K/S103L", "log10 Kd (nM) by replicate": "nd nd nd", "signal with controls": "0/9"}
{"changes": "S28Q/Y31L/E32N", "log10 Kd (nM) by replicate": "0.70 0.97 0.80", "signal with controls": "2/9 (4.54)"}
{"changes": "S25F/A40Q/S58N", "log10 Kd (nM) by replicate": "nd nd nd", "signal with controls": "0/9"}
{"changes": "Y31T/K36D/A40W", "log10 Kd (nM) by replicate": "nd nd nd", "signal with controls": "0/9"}
{"changes": "Q27T/A57R/T59I", "log10 Kd (nM) by replicate": "1.65 1.73 2.06", "signal with controls": "1/9 (4.43)"}
{"changes": "S28Q/S33F/N35F", "log10 Kd (nM) by replicate": "nd 3.21 nd", "signal with controls": "0/9"}